{"source": "patent US7074935B2", "origin": "cited, not measured here", "system": "Plasma protein", "details": "compared with fentanyl; cited from earlier work", "note": "This is a selection: effects in other tests are not listed, and their absence says nothing.", "data": [{"smiles": "CCC(=O)N(c1ccccc1)C1(COC)CCN(CCn2nnn(CC)c2=O)CC1", "values": [{"measurement": "plasma protein binding", "value": "significantly greater than that for fentanyl"}]}]}
